Cyclic peptide permeability, from CycPeptMPDB

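Conditions beyond the assay type are not listed; see the original paper. Other peptides of the study may be missing here. Peptides that the database sets to -10, its floor, are left out.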

PAMPA is the parallel artificial membrane permeability assay, which has no cells and reads passive diffusion.
P is given in units of 10^-6 cm/s (from log10 values with two decimals); larger means faster passage.

Listed for CC(C)C[C@@H]1C(=O)N[C@@H](Cc2ccccc2)C(=O)N2CCC[C@H]2C(=O)N(C)[C@@H](C)C(=O)N(C)[C@@H](CC(C)C)C(=O)N[C@H](CC(C)C)C(=O)N2CCC[C@H]2C(=O)N1C: PAMPA 1 × 10^-6 cm/s. Listed for CC(C)C[C@@H]1C(=O)N2CCC[C@@H]2C(=O)N[C@H](CC(C)C)C(=O)N[C@@H](Cc2ccccc2)C(=O)N2CCC[C@@H]2C(=O)N(C)[C@H](C)C(=O)N[C@H](CC(C)C)C(=O)N1C: PAMPA 2.3 × 10^-6 cm/s. The entry for CC(C)C[C@@H]1NC(=O)[C@H](C)NC(=O)[C@H](Cc2ccccc2)NC(=O)[C@H](CC(C)C)N(C)C(=O)[C@H]2CCCN2C(=O)[C@H](CC(C)C)NC1=O lists PAMPA 0.91 × 10^-6 cm/s. For CC(C)C[C@@H]1C(=O)N[C@H](CC(C)C)C(=O)N2CCC[C@H]2C(=O)N(C)[C@@H](CC(C)C)C(=O)N[C@@H](Cc2ccccc2)C(=O)N2CCC[C@H]2C(=O)N[C@@H](C)C(=O)N1C the data give PAMPA 1.3 × 10^-6 cm/s. For CC(C)C[C@@H]1NC(=O)[C@H](C)NC(=O)[C@H]2CCCN2C(=O)[C@H](Cc2ccccc2)NC(=O)CN(Cc2ccccc2)C(=O)[C@H]2CCCN2C(=O)[C@@H](CC(C)C)N(C)C1=O the data give PAMPA 0.66 × 10^-6 cm/s. Listed for CC(C)C[C@@H]1C(=O)N[C@@H](Cc2ccccc2)CC(=O)N2CCC[C@H]2C(=O)N(C)[C@H](CC(C)C)C(=O)N[C@@H](Cc2ccccc2)C(=O)N2CCC[C@H]2C(=O)N(C)[C@H](C)C(=O)N1C: PAMPA 1.2 × 10^-6 cm/s.

CC(C)C[C@H]1NC(=O)C[C@H](Cc2ccccc2)NC(=O)[C@H](Cc2ccccc2)NC(=O)[C@@H](CC(C)C)NC(=O)[C@H]2CCCN2C(=O)[C@@H](CC(C)C)NC1=O is reported with PAMPA 0.71 × 10^-6 cm/s. Listed for CC(C)C[C@@H]1C(=O)N[C@@H](Cc2ccccc2)C(=O)N[C@@H](Cc2ccccc2)CC(=O)N[C@H](CC(C)C)C(=O)N[C@@H](Cc2ccccc2)CC(=O)N2CCC[C@@H]2C(=O)N1C: PAMPA 2.8 × 10^-6 cm/s. For CC(C)C[C@@H]1C(=O)N(C)[C@H](CC(C)C)C(=O)N2CCC[C@H]2C(=O)N[C@H](CC(C)C)C(=O)N[C@@H](Cc2ccccc2)C(=O)N2CCC[C@H]2C(=O)N(C)[C@H](C)C(=O)N1C the data give PAMPA 7.9 × 10^-6 cm/s. Listed for CCCN1CC(=O)N(Cc2ccccc2)CC(=O)N(C)[C@@H](CC(C)C)C(=O)N2CCC[C@H]2C(=O)N[C@@H](CC(C)C)C(=O)N[C@@H](Cc2ccccc2)C(=O)N2CCC[C@H]2C1=O: PAMPA 2 × 10^-6 cm/s. CC(C)C[C@@H]1C(=O)N[C@@H](Cc2ccccc2)C(=O)N[C@@H](Cc2ccccc2)CC(=O)N(C)[C@@H](CC(C)C)C(=O)N[C@H](CC(C)C)C(=O)N2CCC[C@@H]2C(=O)N1C has PAMPA 10 × 10^-6 cm/s. The entry for CC(C)C[C@H]1NC(=O)C[C@H](Cc2ccccc2)NC(=O)[C@H](Cc2ccccc2)NC(=O)[C@H](CC(C)C)N(C)C(=O)[C@H]2CCCN2C(=O)C[C@H](Cc2ccccc2)NC1=O lists PAMPA 2.3 × 10^-6 cm/s.

The entry for CC(C)C[C@H]1C(=O)N(Cc2ccccc2)CC(=O)N2CCC[C@H]2C(=O)N(C)[C@@H](CC(C)C)C(=O)N[C@@H](Cc2ccccc2)C(=O)N[C@@H](Cc2ccccc2)CC(=O)N1C lists PAMPA 5.1 × 10^-6 cm/s. CCCN1CC(=O)N[C@H](CC(C)C)C(=O)N[C@@H](CC(C)C)C(=O)N2CCC[C@H]2C(=O)N[C@@H](CC(C)C)C(=O)N[C@@H](Cc2ccccc2)C1=O has PAMPA 11 × 10^-6 cm/s. For CC(C)C[C@@H]1C(=O)N(Cc2ccccc2)CC(=O)N2CCC[C@H]2C(=O)N(C)[C@H](CC(C)C)C(=O)N[C@@H](Cc2ccccc2)C(=O)N[C@@H](Cc2ccccc2)CC(=O)N1C the data give PAMPA 3.2 × 10^-6 cm/s. For CC(C)C[C@@H]1C(=O)N[C@@H](Cc2ccccc2)C(=O)N[C@@H](C)C(=O)N(C)[C@@H](CC(C)C)C(=O)N(C)[C@H](CC(C)C)C(=O)N2CCC[C@@H]2C(=O)N1C the data give PAMPA 1.4 × 10^-6 cm/s. The entry for CC(C)C[C@H]1NC(=O)[C@@H](C)NC(=O)[C@H]2CCCN2C(=O)[C@H](Cc2ccccc2)NC(=O)CN(Cc2ccccc2)C(=O)[C@@H]2CCCN2C(=O)[C@@H](CC(C)C)NC1=O lists PAMPA 0.5 × 10^-6 cm/s. CC(C)C[C@H]1NC(=O)[C@H](C)N(C)C(=O)[C@H]2CCCN2C(=O)[C@H](Cc2ccccc2)NC(=O)CN(Cc2ccccc2)C(=O)[C@H]2CCCN2C(=O)[C@@H](CC(C)C)NC1=O is reported with PAMPA 0.66 × 10^-6 cm/s.

Listed for CC(C)C[C@@H]1NC(=O)[C@@H](CC(C)C)NC(=O)C[C@H](Cc2ccccc2)NC(=O)[C@H]2CCCN2C(=O)[C@H](Cc2ccccc2)NC(=O)[C@@H](CC(C)C)N(C)C(=O)[C@H]2CCCN2C1=O: PAMPA 4.7 × 10^-6 cm/s. Listed for CC(C)C[C@@H]1NC(=O)[C@@H](CC(C)C)N(C)C(=O)[C@@H](C)N(C)C(=O)[C@H](Cc2ccccc2)NC(=O)[C@@H](CC(C)C)NC(=O)[C@@H]2CCCN2C1=O: PAMPA 11 × 10^-6 cm/s.

A selection of 3 entries from above:

{"smiles": "CC(C)C[C@@H]1C(=O)N[C@@H](Cc2ccccc2)C(=O)N[C@@H](C)C(=O)N(C)[C@@H](CC(C)C)C(=O)N(C)[C@H](CC(C)C)C(=O)N2CCC[C@@H]2C(=O)N1C", "PAMPA (10^-6 cm/s)": "1.4"}
{"smiles": "CC(C)C[C@@H]1NC(=O)[C@@H](CC(C)C)N(C)C(=O)[C@@H](C)N(C)C(=O)[C@H](Cc2ccccc2)NC(=O)[C@@H](CC(C)C)NC(=O)[C@@H]2CCCN2C1=O", "PAMPA (10^-6 cm/s)": "11"}
{"smiles": "CC(C)C[C@@H]1C(=O)N[C@H](CC(C)C)C(=O)N2CCC[C@H]2C(=O)N(C)[C@@H](CC(C)C)C(=O)N[C@@H](Cc2ccccc2)C(=O)N2CCC[C@H]2C(=O)N[C@@H](C)C(=O)N1C", "PAMPA (10^-6 cm/s)": "1.3"}

Values of Townsend et al. 2020, doi:10.26434/chemrxiv.13335941.v1, as listed in CycPeptMPDB.